Biological target: human DDAH1 (Homo sapiens (Human), UniProt O94760)
Test: Inhibitors of human DDAH-1 validated in full dose-response curves (Table 1)
Assay type: biochemical

The chains behind the UniProt entries cited, without tags or fusion partners.
UniProt O94760, whole entry: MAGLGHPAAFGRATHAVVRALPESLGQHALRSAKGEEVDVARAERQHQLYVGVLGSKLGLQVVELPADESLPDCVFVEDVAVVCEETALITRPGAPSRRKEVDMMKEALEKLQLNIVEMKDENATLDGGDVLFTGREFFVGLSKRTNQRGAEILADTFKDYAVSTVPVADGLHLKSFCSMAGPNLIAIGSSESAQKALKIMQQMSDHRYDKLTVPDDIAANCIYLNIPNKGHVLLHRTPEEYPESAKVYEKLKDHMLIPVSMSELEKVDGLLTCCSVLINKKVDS

CP(=O)(O)c1nc2ccccc2s1
Hill Slope: 1.7
